Laboratory results reported in ChEMBL document CHEMBL1135617, “Dicarboxylic acid bis(L-prolyl-pyrrolidine) amides as prolyl oligopeptidase inhibitors” (J Med Chem, 2002).

By UniProt entry, the sequences of proteins in these tests, tags left out. Where a name states a change or a piece, a line headed by the entry shows the natural chain unless it says otherwise.
UniProt P23687: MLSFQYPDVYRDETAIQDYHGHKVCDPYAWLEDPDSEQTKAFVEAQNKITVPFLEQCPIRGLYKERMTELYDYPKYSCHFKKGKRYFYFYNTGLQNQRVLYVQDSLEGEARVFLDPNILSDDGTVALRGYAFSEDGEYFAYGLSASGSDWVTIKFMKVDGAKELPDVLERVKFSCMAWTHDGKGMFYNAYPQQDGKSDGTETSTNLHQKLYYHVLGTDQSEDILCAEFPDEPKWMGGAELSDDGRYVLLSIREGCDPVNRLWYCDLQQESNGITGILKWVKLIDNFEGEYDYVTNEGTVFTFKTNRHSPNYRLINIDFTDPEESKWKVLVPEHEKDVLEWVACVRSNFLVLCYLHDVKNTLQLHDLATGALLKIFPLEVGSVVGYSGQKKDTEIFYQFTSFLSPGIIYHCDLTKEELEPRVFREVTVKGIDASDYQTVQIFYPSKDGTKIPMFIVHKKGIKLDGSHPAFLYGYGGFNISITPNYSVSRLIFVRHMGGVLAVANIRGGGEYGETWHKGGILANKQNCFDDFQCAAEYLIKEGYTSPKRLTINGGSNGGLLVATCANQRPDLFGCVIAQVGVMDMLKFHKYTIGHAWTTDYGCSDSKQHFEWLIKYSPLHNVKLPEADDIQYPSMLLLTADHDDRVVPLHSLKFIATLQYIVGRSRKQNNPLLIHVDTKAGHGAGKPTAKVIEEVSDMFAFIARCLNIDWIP

Assays:
Prolyl endopeptidase [1] = biological target: T1, Prolyl endopeptidase (Sus scrofa, UniProt P23687)
Prolyl endopeptidase [2] = biological target: T1, Prolyl endopeptidase; test: In vitro inhibitory activity against prolyl oligopeptidase (POP) from pig brain; value ranges from (38-62)

| IC50 (Prolyl endopeptidase [1]) [nM] | IC50 (Prolyl endopeptidase [2]) [nM] | SMILES |
| --- | --- | --- |
| 1.5 | – | N#C[C@@H]1CCCN1C(=O)[C@@H]1CCCN1C(=O)c1cccc(C(=O)N2CCCC2C(=O)N2CCCC2)c1 (some centres not stated) |
| – | 48 | O=C(C1CCCN1C(=O)CCCC(=O)N1CCC[C@H]1C(=O)N1CCCC1)N1CCCC1 (some centres not stated) |
